System: hepatocytes (HepG2 cells)
Assay: Hepacytotoxicity, cell viability by MTS assay
Settings: HepG2 cells, 10, 50, 100 or 200 µM, 24 hours; calculated from cell viability
Method: In order to investigate the hepatotoxicity of the high-temperature-processed green tea extract obtained in Example 1 (sample 2), hepatocytes (HepG2 cells) acquired from Korean Cell Line Bank were seeded onto a 96-well plate (Falcon) with 1×10^5 cells per well and cultured for 24 hours in a 5% CO2 incubator at 37 °C. Then, after treating with the sample 1 or sample 2 at 5, 10, 25, 50 or 100 µg/mL and culturing further for 24 hours, the medium was removed and cell viability was investigated using a CellTiter 96 AQueous One Solution cell proliferation assay kit (MTS, Promega Co. Madison, WI, USA). After treating the cells with 20 µL of a CellTiter 96 AQueous One Solution cell proliferation assay kit (MTS, Promega Co. Madison, WI, USA) solution added to 100 µL of RPMI1640 (Lonza), the number of live cells was quantified by measuring absorbance at 490 nm. The cell number or cell viability (%) was calculated by the following equation. Cell viability (%) = (absorbanceofsample-treatedgroup−absorbanceofreagentalone)/(absorbanceofnon-treatedgroup−absorbanceofreagentalone) × 100 [formula]
After treating the cells with 20 µL of a CellTiter 96 AQueous One Solution cell proliferation assay kit (MTS, Promega Co. Madison, WI, USA) solution added to 100 µL of RPMI1640 (Lonza), the number of live cells was quantified by measuring absorbance at 490 nm. […]

Substance | LD50
catechin | 569.0 µM
catechin gallate [CG] | 260.8 µM
